Measured values as given in patent US20120214975A1.

Amino acid sequences for entries named in this document (tags omitted). Residues count along the entry.
UniProt P08637, 17-254: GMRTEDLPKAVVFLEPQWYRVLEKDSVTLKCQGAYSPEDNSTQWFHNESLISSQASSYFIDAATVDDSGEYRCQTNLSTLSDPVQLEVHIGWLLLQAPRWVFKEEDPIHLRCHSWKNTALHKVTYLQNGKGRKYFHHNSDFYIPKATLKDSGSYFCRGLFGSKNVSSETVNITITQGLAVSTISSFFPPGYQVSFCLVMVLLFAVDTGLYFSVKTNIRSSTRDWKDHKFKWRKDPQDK

What follows are substances tested against FcγRIIIa on primary human NK cells (human) (UniProt P08637) (assay: cell-based or functional assay).
Work on “afucosylated IgG derived from RMD-CHO clone H1 (Trastuzumab biosimilar, IgG1) (antibody)” yielded an ADCC EC50, BT-474 target cells, primary human NK cells of 0.454 ng/mL, an ADCC EC50, SK-BR-3 target cells, primary human NK cells of 0.0932 ng/mL and an ADCC Ratio (WT/H) of EC50, BT-474 target cells of 13 fold. For the same substance, the ADCC Ratio (WT/H) of EC50, SK-BR-3 target cells was 14 fold.
With “afucosylated IgG derived from RMD-CHO clone H2 (Trastuzumab biosimilar, IgG1) (antibody)” the ADCC EC50, BT-474 target cells, primary human NK cells was 0.227 ng/mL, the ADCC EC50, SK-BR-3 target cells, primary human NK cells was 0.0602 ng/mL and the ADCC Ratio (WT/H) of EC50, BT-474 target cells was 27 fold. For the same substance, the ADCC Ratio (WT/H) of EC50, SK-BR-3 target cells was 22 fold.
“afucosylated IgG derived from RMD-CHO clone H3 (Trastuzumab biosimilar, IgG1) (antibody)” showed an ADCC EC50, BT-474 target cells, primary human NK cells of 0.647 ng/mL and an ADCC EC50, SK-BR-3 target cells, primary human NK cells of 0.0917 ng/mL.
For “wild type fucosylated IgG (biosimilar version of the IgG1-type therapeutic antibody Trastuzumab, secreted from unmodified CHO-IgG cells)”, the ADCC EC50, BT-474 target cells, primary human NK cells was 6.03 ng/mL and the ADCC EC50, SK-BR-3 target cells, primary human NK cells was 1.31 ng/mL.
